## Measured affinities in a library of Ab-14 light chain variants

The target is the same throughout: PDVDLGDISGINAS, from the HR2 region of SARS-CoV-2 spike.

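The parent was found by panning a naive human phage display library on the peptide. These sequences belong to a second round, designed from the earlier measurements on random variants of the parent. Their group label is 14L_En_Gen (En: ensemble of fine-tuned language models; Gen: genetic algorithm). In AlphaSeq, yeast of one mating type display the scFv and yeast of the other type display the target. Mating (16 h, 30 °C) was followed by selection of diploids and sequencing of their barcodes. Scores were corrected for input abundance and mapped to Kd with protein pairs of known affinity run in the same pool. There are six technical replicates.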

Each scFv is VH, a (GGGGS)3 linker, VL, as in the parent Ab-14, and differs from it in the CDRs of the light chain only.
VH: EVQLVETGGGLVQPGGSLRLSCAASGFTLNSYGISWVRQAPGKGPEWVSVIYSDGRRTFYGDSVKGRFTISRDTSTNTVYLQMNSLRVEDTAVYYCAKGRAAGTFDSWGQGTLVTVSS
VL: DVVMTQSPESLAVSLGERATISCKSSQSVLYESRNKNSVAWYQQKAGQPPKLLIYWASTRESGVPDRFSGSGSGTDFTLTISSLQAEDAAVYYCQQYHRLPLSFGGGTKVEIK

Variants are written as CDR1, CDR2 and CDR3 of the light chain (limits as in the source). Parent: KSSQSVLYESRNKNSVA, WASTRES, QQYHRLPLS.
The read-out is the apparent dissociation constant on a log10 scale (nM): the lower, the stronger.
"ND" means that the variant was in the library but no mating with the target was seen in that replicate; the authors take this as a sign of poor binding, and no number exists.
The range of this assay differs from that of the first round, and the authors advise against merging the two.
The authors averaged sequences with at least three values out of six and counted those with two or fewer as poor binders.
Background: pairings of all light chain designs with three empty control strains gave a value in 4% of cases (median 2.64, 5th percentile 1.59). Values in that range, when seen in few replicates, are hard to tell from nonspecific mating. The control count says in how many pairings with the empty strains this scFv gave a signal.
The parent sequence was in this pool as ten entries: three were never detected, three once, and four in most replicates, with averages from 0.34 to 2.37.

For MISQVMNTLTHEGNNVA | DLAEREK | QQYFRLPLS, the assay gave 2.05, 1.55, 0.53, 1.11, ND, 1.91 (controls 0 of 18).
For MLSQMWGIGMKAKNSVA | QVSTRME | QQYDRLPLI, the assay gave 1.11, 1.00, 0.67, 0.93, 0.87, 0.82 (controls 2 of 18).
For HMSMLTLMGSRERNSVA | QMTTREN | QQYDRLPLA, the assay gave 0.65, 1.09, 0.90, 0.86, 1.14, 1.47 (controls 1 of 18).
For MISQLMNMGQFAINSVA | QASIRNA | QQYDRLPLA, the assay gave 1.48, 1.24, 1.01, 1.21, 1.11, 0.68 (controls 0 of 18).
For MLSQMWGVGSKHSNSVA | QASMRFN | QQYDRLPLI, the assay gave 0.81, 0.53, 1.52, 0.78, 1.11, 0.65 (controls 0 of 18).
For HITMGMYVAGRHYSSIA | QAEERAK | QQYDRLPLM, the assay gave 1.33, 1.12, 0.83, 2.13, 1.74, 2.22 (controls 0 of 18).
For TLYGLSNSMSKEKNNVA | EMSTREN | QQYDRLPLV, the assay gave 0.99, 0.65, 0.93, 0.45, 0.89, 0.65 (controls 1 of 18).
For IVSQLMIWGMHLKNSIA | EAQTRIN | QQYDRLPLM, the assay gave ND, ND, ND, ND, ND, ND (controls 0 of 18).
For MVTQMAMQGMTNKRSVA | NAETREY | QQYHRLPLI, the assay gave 0.63, 0.52, 0.55, 0.51, 0.41, 0.41 (controls 2 of 18).
For MLSQMWAIGMKVSNSVA | QASMRFN | QQYDRLPLI, the assay gave ND, 2.80, 2.10, 2.89, 1.50, 1.80 (controls 1 of 18).
For TLYGLSMSMSKNKNNVA | EMSTREP | QQYDRLPLF, the assay gave 1.01, 0.83, 0.94, 0.57, 0.76, 1.14 (controls 0 of 18).
For HMSMLTLQGMYHRNSVA | QMTTREN | QQYDHLPLA, the assay gave 0.67, 1.20, 1.22, 1.29, 1.48, 1.11 (controls 0 of 18).
For TISMHTSLFSQTINNVA | EVSTREN | QQYDRLPLM, the assay gave 1.15, 1.35, 0.97, 0.35, 1.07, 1.51 (controls 0 of 18).
For HMSMLTLQGMRMRNSVA | QMTTRVN | QQYDRLPLT, the assay gave ND, ND, ND, ND, ND, ND (controls 1 of 18).
For MLSQMTGLGMKAKNSVA | QANMRFD | QQYYRLPLI, the assay gave 1.50, 0.92, 0.84, 0.36, 1.15, 1.30 (controls 1 of 18).
For KITATMRFEQKNSNNIA | EVTTRSK | QQYYRLPLS, the assay gave 0.23, 0.12, -0.13, 0.11, -0.08, 0.46 (controls 1 of 18).
For SIGGHMKSLSARMNSVA | DMTNRED | QQYDRLPLS, the assay gave 0.83, 0.39, 0.48, 0.47, 0.51, 0.47 (controls 0 of 18).
For MLSQMWAIGQKVSNSVA | QVSTRFE | QQYDRLPLI, the assay gave ND, ND, ND, ND, ND, ND (controls 0 of 18).
For KLSMVTGHMSVSKNNVA | EMETRVN | QQYDRLPLS, the assay gave 0.78, 0.45, 0.12, 0.46, 0.24, 0.41 (controls 1 of 18).
For MMSQVTGSGTRLRNNVA | QTSQREP | QQYDRLPLI, the assay gave 1.17, 0.77, 0.85, 1.25, 1.30, 1.09 (controls 1 of 18).
For MVNQIMDHLSKQTNNVA | ETTTREE | QQYERLPLS, the assay gave 1.02, 0.38, 0.54, 0.28, 0.88, 0.84 (controls 1 of 18).
For MISQLYNVGTFAINSVA | QASLRCN | QQYDRLPLM, the assay gave ND, ND, ND, 1.10, 1.54, 1.62 (controls 2 of 18).
For KVSEFMRGLMSRKDSIA | DNNTRGS | QQYDRLPLS, the assay gave 2.27, ND, 2.62, 2.25, 2.63, 3.28 (controls 0 of 18).
For KFSQTVNTMSVSKSAVA | EMSTRPE | QQYNRLPLS, the assay gave 1.00, 0.72, 0.79, 0.98, 0.76, 1.32 (controls 1 of 18).
For KLSMITGHQLMSKDNVA | EMVTREN | QQYNRLPLS, the assay gave 1.02, 0.63, 0.92, 0.46, 0.70, 0.90 (controls 2 of 18).
For MISQVMNTLTRYGNNVA | DLQNRED | QQYFRLPLS, the assay gave 1.10, 0.66, 0.81, 2.00, 1.30, 1.30 (controls 0 of 18).
For KLSMTTEMEHKNRNSVA | ELVTRMN | QQYHRLPLS, the assay gave 0.69, 0.49, 0.48, 0.57, 0.30, 0.30 (controls 0 of 18).
For KLYEMLAVTMSHIRNVA | DNSTRES | QQYNRLPLS, the assay gave ND, 2.66, ND, 2.58, ND, ND (controls 0 of 18).
For MLGELVMGLSRNYRSVA | DNSTREQ | QQYDRLPLS, the assay gave ND, 2.61, 2.20, ND, 3.00, 2.57 (controls 3 of 18).
For KISQMQRVGSTHNNSIA | EEQTRAK | QQYHRLPLS, the assay gave 1.69, 1.96, 2.18, 1.43, 1.37, 1.92 (controls 0 of 18).
For HMSAVTMMGMRHRNSVA | QMTMREN | QQYDRLPLS, the assay gave 1.85, 1.90, 1.83, 1.68, 1.45, 1.87 (controls 2 of 18).
For QVSEFMMGLMSRKDSIA | DNNTRGS | QQYDRLPLS, the assay gave 2.09, 2.16, 2.79, 2.97, 4.20, 2.80 (controls 3 of 18).
For KISQMVKVGITHNNSIA | EEVTRAK | QQYHRLPLA, the assay gave ND, 3.21, ND, 2.54, 1.54, 2.42 (controls 2 of 18).
For TISQMTSLFSQTINNVA | EVSTREP | QQYDRLPLM, the assay gave 0.89, 1.07, 0.58, 0.66, 0.87, 1.25 (controls 2 of 18).
For MVTQMAMTGMMSKRSVA | NAEMRAD | QQYHRLPFI, the assay gave 0.48, 0.13, 0.21, 0.21, 0.46, 0.57 (controls 0 of 18).
For MISQVTGLGQRHRNNVA | QTSMREI | QQYDRLPLI, the assay gave 2.30, 1.88, 1.63, 1.82, 1.74, 1.66 (controls 0 of 18).
For HITYGMMVHGRHMESIA | QAEERAK | QQYDRLPLA, the assay gave ND, ND, ND, ND, ND, ND (controls 0 of 18).
For MMSQVTGSGQRHRNNVA | QTSTREE | QQYDRLPLI, the assay gave 0.59, 0.40, 0.23, 0.37, 0.59, 0.62 (controls 0 of 18).
For HMSMLTLQGMRHMNSVA | QMTTRVN | QQYDRLPLV, the assay gave 2.00, 2.47, 2.06, ND, 2.09, ND (controls 0 of 18).
For KVSEFMRGLMMRKDSIA | DNQTRES | QQYDRLPLS, the assay gave 0.83, 1.13, 1.09, 1.14, 0.76, 1.26 (controls 0 of 18).
For TLSQMSGVEMVKHNNVA | ENSTREK | QQYDRLPLA, the assay gave ND, ND, ND, ND, ND, ND (controls 0 of 18).
For MISQLWNMGTFAINSVA | QASIRNS | QQYDRLPLV, the assay gave ND, ND, ND, 2.30, ND, ND (controls 0 of 18).
For KLTSITGTEKVHGNSVA | EMATRER | QQYNRLPLA, the assay gave 0.09, 0.23, -0.02, -0.14, 0.35, 0.17 (controls 0 of 18).
For KLSMTSGMEHVNRNSVA | ELVTRMS | QQYNRLPLS, the assay gave 0.38, 0.71, 0.56, 0.41, 0.24, 0.61 (controls 0 of 18).
For TIQQMMSLFSQTINNVA | EVSLREK | QQYDRLPLA, the assay gave 1.52, 1.60, 1.09, 1.83, 1.30, 1.49 (controls 0 of 18).
For MVYQAAMMGTSARNSIA | NAEMRPD | QQYHRLPLM, the assay gave 0.75, 0.60, 1.62, 1.24, 1.34, 2.31 (controls 0 of 18).
For TISQVMNTLTREGNNVA | DLQEREK | QQYFRLPLS, the assay gave 0.82, 0.75, 0.64, 0.75, 0.81, 0.79 (controls 2 of 18).
For MLSQMWALGMKVSNSVA | QVSTRFE | QQYDRLPLI, the assay gave ND, ND, ND, ND, ND, ND (controls 0 of 18).
For MVTQMAMSGMTNKRSVA | NAEQRED | QQYHRLPLI, the assay gave 1.28, 0.27, -0.10, 0.52, 0.07, 0.72 (controls 0 of 18).
For MLSQMWAIGMKVSNSVA | QASTRFN | QQYERLPLM, the assay gave 0.41, 0.38, 0.81, 0.84, 1.34, 0.54 (controls 0 of 18).

Extract of 7 entries:

{"CDR-L1": "MVTQMAMSGMTNKRSVA", "CDR-L2": "NAEQRED", "CDR-L3": "QQYHRLPLI", "log10 Kd (nM) by replicate": "1.28, 0.27, -0.10, 0.52, 0.07, 0.72", "signal with controls": "0/18"}
{"CDR-L1": "TLYGLSMSMSKNKNNVA", "CDR-L2": "EMSTREP", "CDR-L3": "QQYDRLPLF", "log10 Kd (nM) by replicate": "1.01, 0.83, 0.94, 0.57, 0.76, 1.14", "signal with controls": "0/18"}
{"CDR-L1": "MLSQMWGVGSKHSNSVA", "CDR-L2": "QASMRFN", "CDR-L3": "QQYDRLPLI", "log10 Kd (nM) by replicate": "0.81, 0.53, 1.52, 0.78, 1.11, 0.65", "signal with controls": "0/18"}
{"CDR-L1": "MISQVTGLGQRHRNNVA", "CDR-L2": "QTSMREI", "CDR-L3": "QQYDRLPLI", "log10 Kd (nM) by replicate": "2.30, 1.88, 1.63, 1.82, 1.74, 1.66", "signal with controls": "0/18"}
{"CDR-L1": "HMSMLTLQGMYHRNSVA", "CDR-L2": "QMTTREN", "CDR-L3": "QQYDHLPLA", "log10 Kd (nM) by replicate": "0.67, 1.20, 1.22, 1.29, 1.48, 1.11", "signal with controls": "0/18"}
{"CDR-L1": "MISQVMNTLTHEGNNVA", "CDR-L2": "DLAEREK", "CDR-L3": "QQYFRLPLS", "log10 Kd (nM) by replicate": "2.05, 1.55, 0.53, 1.11, ND, 1.91", "signal with controls": "0/18"}
{"CDR-L1": "KLYEMLAVTMSHIRNVA", "CDR-L2": "DNSTRES", "CDR-L3": "QQYNRLPLS", "log10 Kd (nM) by replicate": "ND, 2.66, ND, 2.58, ND, ND", "signal with controls": "0/18"}

Reference: Li et al. 2023, doi:10.1038/s41467-023-39022-2. File: FLAb, binding data.